Measured values as given in ChEMBL document CHEMBL1128821, “Evaluation of differential hypoxic cytotoxicity and electrochemical studies of nitro 5-deazaflavins” (Bioorg Med Chem Lett, 1995).

Assay: Ratio of IC50 values under aerobic to that of anaerobic conditions
Type: functional

Compared with `CCCCCCCCn1c2nc(=O)n(-c3ccccc3)c(=O)c-2cc2ccc([N+](=O)[O-])cc21`, `CCCCCCCCn1c2nc(=O)n(-c3ccccc3)c(=O)c-2cc2c([N+](=O)[O-])cccc21` is higher in Ratio: 5.1 for the first, 6.4 for the second.

First: CCCCCCCCCCCCn1c2nc(=O)[nH]c(=O)c-2cc2ccc([N+](=O)[O-])cc21
Second: CCCCCCCCCCCCn1c2nc(=O)n(C)c(=O)c-2cc2ccc([N+](=O)[O-])cc21
The Ratio of the first is lower: 1.6 for the first, 2.1 for the second.

First: CCCCCCCCCCCCn1c2nc(=O)n(C)c(=O)c-2cc2c([N+](=O)[O-])cccc21
Second: CCCCCCCCCCCCn1c2nc(=O)[nH]c(=O)c-2cc2c([N+](=O)[O-])cccc21
The Ratio of the first is lower: 2.5 for the first, 3.9 for the second.

With `NC(=O)N/N=C/c1ccc([N+](=O)[O-])o1` [NITROFURAZONE] the Ratio was 2.7.
